In ChEMBL document CHEMBL1122933, “Drug glycosides: potential prodrugs for colon-specific drug delivery” (J Med Chem, 1985):

Test: Partition coefficient (logP)
Assay type: physicochemical
Conditions: octanol/water
How it was run: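 Apparent 1-octanol/0.01 M phosphate buffer (pH 7.0) partition at 37 °C used mutually pre-saturated phases in equal volumes, agitated 30 min. Glycosides started at 10 mM in buffer and free steroids at 10 mM in octanol. Aqueous-phase concentration was read by UV: 239 nm for dexamethasone and fludrocortisone compounds, 242 nm for prednisolone and hydrocortisone compounds.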

Row | Structure (SMILES) | logP
1 | CC1CC2C3CCC4=CC(=O)C=CC4(C)[C@@]3(F)C(O)CC2(C)[C@@]1(O)C(=O)CO[C@@H]1O[C@@H](CO)[C@@H](O)[C@H](O)[C@H]1O (some centres not stated) | 0.49
2 | CC1CC2C3CCC4=CC(=O)C=CC4(C)[C@@]3(F)C(O)CC2(C)[C@@]1(O)C(=O)CO[C@@H]1O[C@H](CO)[C@@H](O)[C@H](O)[C@H]1O (some centres not stated) | 0.59
